By UniProt entry, the sequences of proteins in these tests, tags left out. Residues count along the entry.
UniProt P18507, 40-475 limits assumed: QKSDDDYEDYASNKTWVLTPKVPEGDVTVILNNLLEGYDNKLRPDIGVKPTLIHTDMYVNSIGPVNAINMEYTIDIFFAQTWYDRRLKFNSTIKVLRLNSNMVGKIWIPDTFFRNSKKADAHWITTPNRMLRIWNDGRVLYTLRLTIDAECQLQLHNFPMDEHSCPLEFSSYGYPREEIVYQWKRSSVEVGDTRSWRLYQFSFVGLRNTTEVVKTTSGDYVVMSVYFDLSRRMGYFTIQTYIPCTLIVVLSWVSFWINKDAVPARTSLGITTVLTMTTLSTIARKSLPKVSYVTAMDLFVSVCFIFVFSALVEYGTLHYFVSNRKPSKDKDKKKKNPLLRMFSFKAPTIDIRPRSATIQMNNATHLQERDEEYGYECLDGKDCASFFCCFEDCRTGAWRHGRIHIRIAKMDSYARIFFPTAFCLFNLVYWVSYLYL
UniProt P28472, 26-473 limits assumed: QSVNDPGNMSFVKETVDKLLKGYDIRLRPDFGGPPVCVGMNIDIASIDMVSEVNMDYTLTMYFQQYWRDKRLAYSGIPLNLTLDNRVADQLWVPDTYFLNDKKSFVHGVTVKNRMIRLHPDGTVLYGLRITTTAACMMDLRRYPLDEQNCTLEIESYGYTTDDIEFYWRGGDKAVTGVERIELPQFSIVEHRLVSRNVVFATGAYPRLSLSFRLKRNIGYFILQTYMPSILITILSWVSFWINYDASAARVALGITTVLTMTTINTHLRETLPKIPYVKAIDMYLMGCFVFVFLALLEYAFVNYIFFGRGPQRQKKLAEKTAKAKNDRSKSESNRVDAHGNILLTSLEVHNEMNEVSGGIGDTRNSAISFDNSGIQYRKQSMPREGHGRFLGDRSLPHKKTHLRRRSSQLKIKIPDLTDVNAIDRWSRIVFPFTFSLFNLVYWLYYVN
UniProt P47869, 29-451 limits assumed: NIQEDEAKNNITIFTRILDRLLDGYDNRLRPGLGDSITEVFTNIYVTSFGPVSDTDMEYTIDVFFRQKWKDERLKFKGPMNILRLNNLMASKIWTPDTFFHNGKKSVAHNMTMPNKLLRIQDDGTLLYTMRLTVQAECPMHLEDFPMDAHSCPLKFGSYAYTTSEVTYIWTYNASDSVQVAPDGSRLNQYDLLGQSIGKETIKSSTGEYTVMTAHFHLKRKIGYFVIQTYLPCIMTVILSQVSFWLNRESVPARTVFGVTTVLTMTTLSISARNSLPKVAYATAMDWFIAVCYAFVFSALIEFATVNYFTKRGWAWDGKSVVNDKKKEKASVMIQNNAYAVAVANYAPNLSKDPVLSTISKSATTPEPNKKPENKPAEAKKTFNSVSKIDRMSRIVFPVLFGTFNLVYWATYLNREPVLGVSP

In patent US7282344B2, “Cation conducting GABAA receptors and their use” (Neurosearch A/S, priority 2001, dated 2007):

Target: GABAA receptor α2 β3 γ2 (wt) (Homo sapiens, UniProt P18507+P28472+P47869)
Experiment: [^35S]-TBPS binding, wild-type receptor
Conditions: 5 nM [^35S]-TBPS, 0.6 μM GABA

For TBPS, the “[^35S] TBPS binding” value was “+ ((+) indicates more and (÷) indicates less than 2.5% binding of the wt receptor)”.
